Source: PubChem BioAssay
G9a block – inhibitors of human histone lysine methyltransferase G9a | Q96KQ7 | G9a H3K9 monomethylation, AlphaScreen, 2 h | Potency, µM (titrated, usually from 102 µM), actives largely listed as inhibitors | hit rate 8.8% among 350,000; note: nearly all actives have a fitted effect of over 75% in size
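Chemiluminescent proximity detection of H3K9 monomethylation, read after 10 min bead incubation in the dark. Reaction: 20 nM G9a, 500 nM biotin-H3K9 peptide, 20 uM SAM cofactor, 2 h, room temperature, following 15 min enzyme-compound preincubation.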
Sfp PPTase inh – inhibitors of Bacillus subtilis Sfp phosphopantetheinyl transferase | hit rate 3.5% among 310,000 | Biochemical Sfp PPTase activity, qHTS | AID 1490 | Potency, µM, actives largely listed as inhibitors | Q9F4F7;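 note: the enzyme is Sfp with the accession as filed and its product quenches rhodamine fluorescence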
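Fluorescence-quenching assay with 15 nM Sfp, 5 uM rhodamine-CoA and 12.5 uM BHQ-2-labelled ybbR peptide in pH 7.6 Hepes/MgCl2 buffer. Enzyme was pre-incubated with compound for 15 min at room temperature. Rate was taken from the 30-min fluorescence change (525/598 nm).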
Lamin A splicing – LMNA splicing modulation; hit rate 0.01% among 200,000; Potency, µM (doses to about 46.1 µM), hits mostly inhibitors; HeLa LMNA splicing GFP/RFP minigene ratio, 48 h; active = well fitted inhibition curve with a large enough effect in the signal ratio, with a control signal flat, not every such curve was filed as active; inconclusive = small, poorly fitted or top-dose-only effect, or effect the other way, or a change in a side signal; the % refers to the signal ratio
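Read-out is the ratio of GFP to DsRed2 object intensity, acquired by 488 nm laser-scanning cytometry on HeLa lamin A-EGFP minigene reporter cells. Compound incubation 48 hrs at 37 °C in Opti-MEM with 2% FBS; DMSO 0.5% final.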
KDM4E inh – inhibitors of human JMJD2E histone demethylase. Potency, µM (titrated, usually from 57.1 µM), most hits filed as inhibitors. JMJD2E catalytic domain, FDH-coupled NADH fluorescence (FDH is formaldehyde dehydrogenase). B2RXH2. hit rate 1.6% among 230,000; active = well fitted inhibition curve with a large enough effect, not every such curve was filed as active; inconclusive = small, poorly fitted or top-dose-only effect, or another doubt; inactive = no such curve, though single readings can be large or run the other way; note: nearly all actives have a fitted effect of over 50% in size
miR-21 FLuc – raises the signal of a miR-21 reporter | HeLa miR-21 FLuc reporter, luciferase, 48 h | Potency, µM (doses to about 38.3 µM) | 340,000 tested, under 10 active | AID 2288; active = well fitted rising curve with a large enough effect; inconclusive = small, poorly fitted or top-dose-only effect; inactive = no such curve, though single readings can be large or run the other way;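 note: miR-21 action dims this reporter so a rising signal means less miR-21 action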
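HeLa cells endogenously expressing miR-21, stably carrying CMV-driven firefly luciferase with a downstream miR-21 binding site, 2000 cells/well. Titrations up to approximately 40 uM, 48 hours; luciferase luminescence read.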
ALDH1A1 inh – ALDH1A1 (human) enzyme inhibition | P00352 | Purified ALDH1A1, NADH fluorescence, propionaldehyde substrate | Potency, µM (top dose mostly 75.3 µM), usual class: inhibitors | hit rate 7.3% among 220,000 | AID 1030; active = well fitted inhibition curve with a large enough effect, not every such curve was filed as active; inconclusive = small, poorly fitted or top-dose-only effect, or another doubt; inactive = no such curve, though single readings can be large or run the other way
Hits are given with their value; n = inactive; u = inconclusive; x = no result given; ! = not active in a repeat; [ ] = another dose, or the depositor's remark. In the library only some 13% were active in any assay of this set; here they are far more common. Unless noted, calls come from the whole dose curve; as a rule, active = well fitted curve in the direction sought with a large enough effect; inconclusive = small, poorly fitted or top-dose-only effect, or another doubt; inactive = no such curve, though single readings can be large; an effect the other way counts as inactive or inconclusive.

SMILES	G9a block	Sfp PPTase inh	Lamin A splicing	KDM4E inh	miR-21 FLuc	ALDH1A1 inh
Cc1ccc(-c2cnc(SCC(=O)N3CCCc4ccccc43)n2C)cc1	11.2µM	n	u	n	n	u
Cn1c(-c2ccccc2)cnc1SCC(=O)N1CCCc2ccccc21	u	n	n	n	n	10µM
Cc1ccc(-c2ccc(SCC(=O)N3CCCc4ccccc43)nn2)cc1	u	n	u	n	n	u
CCOC(=O)N1CCN(CC(=O)Nc2nnc(C(F)(F)F)s2)CC1	x	n	x	x	n	x
COC(=O)c1cccc(NC(=O)CC2C(=O)NCCN2C(=O)c2ccc(F)cc2F)c1 (stereo not given)	n	n	x	n	n	n
O=C(CSc1ncc(-c2ccccc2)n1C1CCCC1)N1CCc2ccccc21	31.6µM	n	n	n	n	3.55µM
O=C(CSc1nnnn1C1CCCCC1)N1CCc2ccccc21	n[12.7 µM]	n	n	n	n	n
O=C(CN1CCN(S(=O)(=O)c2ccc(Cl)cc2)CC1)Nc1ccc(N2CCOCC2)cc1	56.2µM	n	n	n	n	n
COc1ccc(NC(=O)CN2CCN(S(=O)(=O)c3ccc(Cl)cc3)CC2)cc1	u	n	n	n	n	18.9µM
COc1cccc(NC(=O)CN2CCN(S(=O)(=O)c3ccc(C(C)C)cc3)CC2)c1	n[12.7 µM]	n	n	n	n	22.4µM
COc1ccc(S(=O)(=O)N2CCCN(CC(=O)Nc3ccc(OC)c(Cl)c3)CC2)cc1	44.7µM	n	n	n	n	1.58µM
Cc1cccc(NC(=O)Cn2nnc(C(=O)Nc3ccccc3Br)c2N)c1C	n	x	u	x	n	x
COc1cc(/C=C/C(=O)OCC(=O)N2CC3(C)CC2CC(C)(C)C3)ccc1O (stereo not given)	n	n	n	u	n	n
O=C(/C=C/c1ccc(O)c(O)c1)OC1C(O)CC(OC(=O)/C=C/c2ccc(O)c(O)c2)(C(=O)O)CC1O (stereo not given)	31.6µM	44.7µM	x	3.16µM	n	n
COc1cc(/C=C/C(=O)OC2CC3CCC2(C)C3(C)C)ccc1O (stereo not given)	n	n	x	u	n	x
O=C(O)C1(O)CC(O)C(O)C(O)C1 (stereo not given)	x	n	u	n	x	n
O=C(/C=C\c1ccc(O)c(O)c1)O[C@@H]1C[C@](O)(C(=O)O)C[C@@H](O)[C@@H]1O	0.355µM	u	n	4.47µM	x	n
O=C(/C=C/c1ccc(O)c(O)c1)O[C@@H]1C[C@](O)(C(=O)O)C[C@@H](O)[C@H]1O	12.6µM!	x	x	x	x	x
OCCCNc1c2ccccc2nc2ccccc12	n	n	x	x	u	x
CCC(CC)C(=O)Nc1cc(-c2nc3cccnc3s2)ccc1C	n	x	n	x	n	x
NC1=N[C@H](c2ccc(Cl)cc2)N(c2ccc(S(N)(=O)=O)cc2)C(N)=N1	x	x	x	x	x	n[13.5 µM]
Cc1ccc(-c2nc3ncccc3o2)cc1NC(=O)COc1ccc(C(C)C)cc1	14.1µM	x	x	x	u	x
Cc1cc(OCC(=O)Nc2cc(-c3nc4ncccc4o3)ccc2C)ccc1Cl	n	x	x	x	n	x
CCc1ccc(NC(=O)Cn2ccn(-c3ccc(C)c(C)c3)c(=O)c2=O)cc1	n	x	n	x	n	x
CCOC(=O)/C=C1\SC(C)C(=O)N1CC(=O)N(CCC#N)c1ccccc1 (stereo not given)	n[12.7 µM]	x	x	x	x	x
SMILES	G9a block	Sfp PPTase inh	Lamin A splicing	KDM4E inh	miR-21 FLuc	ALDH1A1 inh
Cc1ccc(C2NC(=O)NC(O)(C(F)(F)F)C2C(=O)c2ccccc2)o1 (stereo not given)	u	n	n	n	n	8.91µM
COc1ccc(C(=O)C2C(c3ccc(-c4ccccc4[N+](=O)[O-])o3)NC(=O)NC2(O)C(F)(F)F)cc1 (stereo not given)	u	n	n	n	n	12.6µM
CCn1c(=O)c2cc(C(=O)Nc3cccc(C(F)(F)F)c3)sc2c2ccccc21	n	x	x	x	n	x
COCc1cc(C)nc2c1C(=O)NC(c1ccc(F)cc1)N2Cc1ccccc1 (stereo not given)	14.1µM	x	u	x	n	x
COCc1cc(C)nc2c1C(=O)NC(c1ccc(NC(C)=O)cc1)N2Cc1ccccc1 (stereo not given)	n	x	x	x	n	x
CCOc1cc(/C=C(\C#N)C(=O)Nc2ccc(OC)cc2)ccc1OCc1cc(=O)n2nc(CC)sc2n1	n	x	x	x	n	x
CN(C)CCNC(=O)c1c(O)c2c([nH]c1=O)CCCC2	n[12.7 µM]	n	n	n	n	u
CCN(CC)CCNC(=O)c1c(O)c2c([nH]c1=O)CCCC2	79.4µM	n	n	u	n	n
Cc1ccc(CNC(=O)c2sc3nc(-c4ccc(F)cc4)ccc3c2N)cc1	u	x	x	x	n	x
O=Cc1ccc(N2CCCC2)o1	u	n	u	n	n	n
CC1CCN(c2ccc(C=O)o2)CC1	n	n	n	n	n	14.1µM
COc1ccc(NC(=O)CN2C(=O)CSc3ccc(S(=O)(=O)N(C)C)cc32)cc1OC	n	x	u	x	n	x
O=C(NCc1ccccc1Cl)c1ccc(S(=O)(=O)Nc2cccc(C(F)(F)F)c2)cc1	n	n	u	n	n	n
O=C(O)Cn1cc(/C=N/NC(=O)c2cc3cc(Br)ccc3o2)c2ccccc21	n	n	x	n	n	x
O=C(O)c1ccc(-n2cccc2/C=N\NC(=O)c2cc3cc(Br)ccc3o2)cc1	14.1µM	n	x	u	n	x
Cn1cc(/C=N/NC(=O)c2cc3cc(Br)ccc3o2)c2ccccc21	50.1µM	n	x	n	n	x
COc1ccc(C(=O)Nc2cc(-c3cccc(C)c3)nn2-c2ccccc2)cc1	n	x	n	x	n	x
Cc1ccc(Cl)cc1NC(=O)Cn1ncc2c(C)n(Cc3ccccc3F)c(C)c2c1=O	n	x	x	x	n	x
CC(=O)c1cccc(NC(=O)C2=CC(c3ccc(F)cc3)=NS(=O)(=O)N2C)c1	n	x	x	x	n	x
Cc1ccc2c(c1)NC(=O)C(CC(=O)NCc1ccc(F)cc1)O2 (stereo not given)	50.1µM	n	n	n	n	n
CCc1cccc(NC(=O)CC2Oc3ccc(C)cc3NC2=O)c1 (stereo not given)	n	x	x	x	n	x
Cc1cc(C)cc(NC(=O)CC2Oc3ccc(C)cc3NC2=O)c1 (stereo not given)	u	n	x	x	n	x
CC(=O)c1cccc(NC(=O)CC2Oc3ccc(C)cc3NC2=O)c1 (stereo not given)	n	n	n	n	n	3.16µM
Cc1ccc(CNC(=O)CC2Oc3ccc(Cl)cc3NC2=O)cc1 (stereo not given)	n	x	x	x	n	x
Cc1ccc2c(c1)NC(=O)C(CC(=O)NCc1cccnc1)O2 (stereo not given)	31.6µM	u	n	n	n	n
C=CCn1c(NS(=O)(=O)c2ccccc2)c(S(=O)(=O)c2ccc(C)cc2)c2nc3ccccc3nc21	2µM	39.8µM	n	n	u	n
O=S(=O)(Nc1c(S(=O)(=O)c2ccccc2)c2nc3ccccc3nc2n1C1CCCCC1)c1ccccc1	n	n	n	u	n	u
Cc1ccc(C)c(N(C)C(=O)C2CCN(S(=O)(=O)c3cccc4nsnc34)CC2)c1	n	x	x	x	n	x
